This is an account of results in patent US6596719B1 (Actelio Pharmaceuticals Ltd., priority 1999, dated 2003).

Protein sequences, listed by entry. Tags and fused reporters are not part of them. Residues count along the entry.
UniProt P25101, 21-427: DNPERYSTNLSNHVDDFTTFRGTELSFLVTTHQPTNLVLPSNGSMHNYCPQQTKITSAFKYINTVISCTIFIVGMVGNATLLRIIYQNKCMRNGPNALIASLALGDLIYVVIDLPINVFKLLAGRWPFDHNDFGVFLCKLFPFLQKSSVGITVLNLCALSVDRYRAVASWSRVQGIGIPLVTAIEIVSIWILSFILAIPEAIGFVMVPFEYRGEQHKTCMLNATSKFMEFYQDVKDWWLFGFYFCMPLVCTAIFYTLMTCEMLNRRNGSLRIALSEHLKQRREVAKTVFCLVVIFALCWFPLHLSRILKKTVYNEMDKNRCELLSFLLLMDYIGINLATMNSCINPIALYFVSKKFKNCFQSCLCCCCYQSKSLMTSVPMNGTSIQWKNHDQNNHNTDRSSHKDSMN

In test [1] the target is T1, human recombinant ETA receptors (Homo sapiens, UniProt P25101).
T1 construct: expressed in transfected cells; host or cells: CHO cells (microsomal membranes)
Kind of test: Inhibition of endothelin binding to membranes from CHO cells carrying human ET receptors (ETA). Particulars: membranes of CHO cells expressing human recombinant ETA receptors, 8 pM [125I]ET-1, 2 h at 20° C.

For test [2], the target named is T2, human recombinant ETB receptors (Homo sapiens, UniProt P24530).
T2 construct: expressed in transfected cells; host or cells: CHO cells (microsomal membranes)
T2 sequence (P24530 27-442): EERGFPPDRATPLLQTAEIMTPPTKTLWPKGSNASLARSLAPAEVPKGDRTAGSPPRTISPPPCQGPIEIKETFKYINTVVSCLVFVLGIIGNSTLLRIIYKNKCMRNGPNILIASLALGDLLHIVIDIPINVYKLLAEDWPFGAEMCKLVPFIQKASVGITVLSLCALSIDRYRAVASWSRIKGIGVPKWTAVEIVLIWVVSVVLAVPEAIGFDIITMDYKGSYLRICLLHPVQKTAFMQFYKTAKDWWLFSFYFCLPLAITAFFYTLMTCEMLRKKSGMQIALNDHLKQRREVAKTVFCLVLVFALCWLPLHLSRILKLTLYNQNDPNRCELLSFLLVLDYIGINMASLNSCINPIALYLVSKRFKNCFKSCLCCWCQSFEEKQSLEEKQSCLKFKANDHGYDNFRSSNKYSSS
Kind of test: Inhibition of endothelin binding to membranes from CHO cells carrying human ET receptors (ETB). The note with it: membranes of CHO cells expressing human recombinant ETB receptors, 8 pM [125I]ET-1, 2 h at 20° C. As for the experimental part: 1) Inhibition of Endothelin Binding to Membranes from CHO Cells Carrying Human ET Receptors:
For competition binding studies, membranes of CHO cells expressing human recombinant ETA or ETB receptors were used. Microsomal membranes from recombinant CHO cells were prepared and the binding assay made as previously described (Breu V., et al, FEBS Lett 1993; 334:210).
The assay was performed in 200 uL 50 mM Tris/HCl buffer, pH 7.4, including 25 mM MnCl2, 1 mM EDTA and 0.5% (w/v) BSA in polypropylene microtiter plates. […]. […] After two h, the membranes were filtered on, filterplates containing GF/C filters (Unifilterplates from Canberra Packard S. A. Zürich, Switzerland). To each well, 50 uL of scintillation cocktail was added (MicroScint 20, Canberra Packard S. A. Zürich, Switzerland) and the filter plates counted in a microplate counter (TopCount, Canberra Packard S. A. Zürich, Switzerland).
All the test compounds were dissolved, diluted and added in DMSO. […] […].

What is called IC50 is the concentration that gives 50% inhibition. On to “5-i.-propyl-N-[6-(ethoxy-2-benzenesulfonamido)-5-(o-methoxyphenoxy)-2-(4-pyridyl)-4-pyrimidinyl]pyridine-2-sulfonamide [Example 13]”, for which the figures for the IC50 in test [1] and in test [2] were 885 nM and 69.2 nM, respectively.
